## Yeast mating assay B: variants of the scFv Ab-14

Data: MIT Lincoln Laboratory AlphaSeq set, Li et al. 2023, doi:10.1038/s41467-023-39022-2, as distributed in FLAb.

Antigen: PDVDLGDISGINAS, a 14-residue peptide of the SARS-CoV-2 spike HR2 region.

Parent scFv Ab-14: VH joined to VL by a 15-residue (Gly4Ser)3 linker. Changes lie in the light chain CDRs alone.
VH: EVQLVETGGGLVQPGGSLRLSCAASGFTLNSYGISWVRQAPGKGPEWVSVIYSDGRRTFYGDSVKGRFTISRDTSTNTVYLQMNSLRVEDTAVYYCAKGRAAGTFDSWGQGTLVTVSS
VL: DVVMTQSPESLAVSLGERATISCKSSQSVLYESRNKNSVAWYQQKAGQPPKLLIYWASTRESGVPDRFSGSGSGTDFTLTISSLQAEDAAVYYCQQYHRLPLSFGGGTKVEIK

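The starting antibody came from a phage panning campaign against this peptide. Designed CDR sequences, proposed from the first random library and measured here. Several design methods are mixed in this list. The assay is AlphaSeq: two haploid yeast populations carry antibody and antigen on their surface. Binding brings cells together so that they mate, and sequencing counts the barcode pairs among the diploids. Scores were corrected for input abundance and mapped to Kd with protein pairs of known affinity run in the same pool. There are six technical replicates.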

Each variant is given by its three light chain CDRs, as the data file delimits them; those of the parent are KSSQSVLYESRNKNSVA, WASTRES, QQYHRLPLS. Scale: log10 of Kd in nM, estimated from mating counts; low values are strong binders. Averages over replicates are reported, and they cover detected replicates only. An entry "no signal" has no value in the source: the pair was not observed among the diploids in any replicate. This suggests poor binding but is not conclusive. Of ten entries with the parent sequence, four were seen in most replicates (averages 0.34 to 2.37), three in one and three in none, so single entries are noisy.

mean, log10 nM	replicates with signal	CDR-L1	CDR-L2	CDR-L3
0.76	6 of 6	SMAYQQGGYNQQEKAIA	EAATRTQ	QQYFRLPLT
1.99	6 of 6	RSSQSVLYESLNKNSVA	WASTRES	QQYGRLPLS
0.82	6 of 6	KLSWDDMSHFNTRSAVA	DMTMRAW	QQYNRLPLD
0.62	6 of 6	KSSLSVLYESQNHNSVA	NASTRES	QQYHVLPLS
0.04	6 of 6	KLQQSFLYESRNKMSVA	NASTREE	QQYHRLPLS
1.63	3 of 6	TIGGTLMYGYRNRSNVA	EVSQRLN	QQYDRLPLF
0.36	6 of 6	KQSQSVLYESVNKNSVA	DASTRED	QQYHRLPLS
0.02	6 of 6	MVSQSVEYESRNKNSVA	EASTRES	QQYHRLPLS
0.66	6 of 6	KSSTSVLYESRNKNSVA	DAVTRES	QQYHRLPLS
0.77	6 of 6	KSSQSVLYESRNRNSVA	WASTRES	QQYARLPLS
0.20	6 of 6	KFSMLHWYESRNKNSVA	EASTREQ	QQYHRLPLS
1.45	6 of 6	RMNKHMSGATEAKNSMA	GVEHRAN	QSYHRLPLS
0.89	6 of 6	KSSQSVLDESRNKNAIA	SASTRES	QTYHRLPLS
2.22	5 of 6	KSSQSVLYEKRNANSVA	WASTRES	QSYHRLPLS
0.39	6 of 6	QLGAVQDMTSKNRNSVA	EQSTREN	QQYHRLPLS
0.87	3 of 6	QIALSEEEVGIQKNSIA	EETVRPA	QQYLRLPLH
0.35	6 of 6	KLSFLSEMEHVNRNSVA	ELVTRMS	QQYNRLPLS
-0.74	6 of 6	KLSQSWLYESRNKNSVA	DASTRES	QQYHRLPLS
1.91	6 of 6	HSSPSVRYESRNKNSVA	NASTRES	QQYHRLPLS
2.73	1 of 6	MIAESIGYQSRNKNSVA	DNSTRED	QCYDRLPLS
-0.15	6 of 6	KVSQEVLFESRNKNSVA	DASTRES	QQYHRLPLS
-0.61	6 of 6	KLSQSQLYESRNKNNVA	NASTRES	QQYHRLPLS
0.36	6 of 6	HLELKVGGVQAVGYSVA	HASQRQA	QQYYQLPLT
0.63	6 of 6	SISGFMKSLSAHANSVA	DMTNREN	QQYNRLPLS
0.32	6 of 6	KLQQQWLYESRNKNSVA	SASTREL	QQYHRLPLS
no signal	0 of 6	KSSNSVLYESRNKNSVA	WASTRES	QWYHRLPLS
0.13	6 of 6	KWSQSILYESRNKNSVA	SASTRES	QQYHRLPLS
1.51	3 of 6	MVSQLMLWGLHAKNSIA	EAVTRCN	QQYDRLPLF
no signal	0 of 6	KSSQSQLYESRNKNNVA	QASTRES	QQYHRLPLS
-0.18	6 of 6	HLSDTVMGGSYYRNSVA	QESTRAD	QQYHRLPLS
1.37	6 of 6	KLSQSTSYESLNRNSVA	ELTTRGG	QQYNRLPLS
1.03	6 of 6	MISQVLNTLTRTGNNVA	DLQERET	QQYFRLPLS
1.18	6 of 6	KLVNFMNRGTHHTSNIA	DAQNRTD	QQYYRLPLA
0.24	6 of 6	YLSISYLYESPNKNSVA	EASTRES	QQYHRLPLS
1.78	2 of 6	KLREVQHLETKQRNNVA	DNDTREY	QDYYRLPLS
1.02	6 of 6	KIRVQQYSQSEMEDNIA	QESTRHQ	QQYFRLPLS
1.36	6 of 6	KILQEIENQSYNRNSVA	HQSTRED	QSYHRLPLS
1.68	6 of 6	HSNGNLRMGERNKNHVA	STDVRES	QQYSRLPLV
2.30	4 of 6	KSSLSALYESSNKNSVA	WASTRES	QQYHRLPLS
1.09	6 of 6	MMSQVTALGQRHRNNVA	QTSTREP	QQYDRLPLI
-0.34	6 of 6	KFSQSVLYESRNKNNVA	DASTRES	QQYHRLPLS
1.82	3 of 6	KVSQSNGYESRMKNSVA	HASQRES	QQYHRLPLS
1.56	5 of 6	KSSHSVPYESRNKNSVA	TASTRES	QQYHRMPLS
2.65	4 of 6	SLGLVTMLEYAGRNSVA	NNSTRSD	QQYDRLPLS
1.76	6 of 6	KISMLYNFASTNKNSIA	EMTTRED	QHYHRLPLS
2.13	4 of 6	IVSQLMLWGYHAKNSIA	EAETRPN	QQYDRLPLI
-0.07	6 of 6	KLQQSHLYESRNKNSVA	DASTRES	QQYHRLPLS
0.16	6 of 6	KSMQGVLYESRNKNSVA	GASQRES	QQYHRLPLS
0.62	6 of 6	KLSQSVLSEERNKNSVA	YASTRES	QQYHRLPLS
-0.27	6 of 6	KLEGSELYESRNKNSVA	NASTRES	QQYHRLPLS
1.10	6 of 6	KLGQMTAIESRNNNSVA	QMDTREE	QQYDRLPLS
no signal	0 of 6	KSSQSVLYESRNKNSVA	WATKRES	QQYHRLPTS
0.79	6 of 6	TISQMTSLFSMSINNVA	EVSTREE	QQYDRLPLV
0.00	6 of 6	KSECGVLYESRNKNSVA	GASTRES	QQYHRLPLS
0.03	6 of 6	KQSQSVLYESVNKNSVA	DASTRES	QQYHRLPLS
0.23	6 of 6	LLSGSSGYEQRNKNSVA	DASTRLS	QAYHRLPLS
0.61	6 of 6	SLMQVGGYESNNRNSIA	DLRTRES	QQYHRLPLS
0.61	6 of 6	SISGFMKSLSAHINNVA	DMTNRED	QQYDRLPLS

Values of this round are not directly comparable with the first-round values of the same sequences. The authors averaged sequences with at least three values out of six and counted those with two or fewer as poor binders. As a blank, each scFv also met three strains without target: over all light chain designs, 4% of these pairings were detected, typically at 2.64 and seldom below 1.59.